Experimental data reported in BindingDB's records for patent US10053463 (Janssen Pharmaceutica NV, 2018).

Amino acid sequences for entries named in this document (tags omitted). A change or cut given only in a name is not applied to a line headed by its entry.
UniProt Q99572: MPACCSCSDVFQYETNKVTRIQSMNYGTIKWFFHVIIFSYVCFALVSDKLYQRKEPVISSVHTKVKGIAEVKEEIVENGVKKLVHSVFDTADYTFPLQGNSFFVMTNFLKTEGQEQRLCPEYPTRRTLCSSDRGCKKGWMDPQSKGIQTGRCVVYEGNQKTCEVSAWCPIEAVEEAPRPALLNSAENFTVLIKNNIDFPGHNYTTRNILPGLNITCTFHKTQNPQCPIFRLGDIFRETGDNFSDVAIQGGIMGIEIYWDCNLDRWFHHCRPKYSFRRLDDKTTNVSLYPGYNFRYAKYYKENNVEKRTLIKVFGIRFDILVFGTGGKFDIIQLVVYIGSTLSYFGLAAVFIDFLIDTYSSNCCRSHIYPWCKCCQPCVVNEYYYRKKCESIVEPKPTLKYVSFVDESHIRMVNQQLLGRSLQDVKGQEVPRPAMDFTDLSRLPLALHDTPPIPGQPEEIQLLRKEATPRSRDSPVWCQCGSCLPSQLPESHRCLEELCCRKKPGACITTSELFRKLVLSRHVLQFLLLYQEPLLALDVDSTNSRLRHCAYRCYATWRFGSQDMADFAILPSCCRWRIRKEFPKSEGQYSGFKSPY

Target: P2X purinoceptor 7 (Homo sapiens, UniProt Q99572)
Experiment: P2X7 FLIPR Assay
Settings: pH 7.4
Experimental: 1321N1 cells expressing the recombinant human or rat P2X7 channel was cultured in HyQ DME/(HyClone/Dulbecco's Modified Eagle Medium) high glucose supplemented with 10% Fetal Bovine Serum (FBS) and appropriate selection marker. Cells were seeded at a density of 25000 cells/well (96-well clear bottom black walled plates) in 100 μl volume/well. On the day of the experiment, cell plates were washed with assay buffer, containing (in mM): 130 NaCl, 2 KCl, 1 CaCl2, 1 MgCl2, 10 HEPES, 5 glucose; pH 7.40 and 300 mOs. After the wash, cells were loaded with the Calcium-4 dye (Molecular Device) and incubated in the dark for 60 minutes. Test compounds were prepared at 250× the test concentration in neat DMSO. Intermediate 96-well compound plates were prepared by transferring 1.2 μL of the compound into 300 μL of assay buffer. A further 3× dilution occurred when transferring 50 μL/well of the compound plate to 100 μL/well in the cell plate. Cells were incubated with test compounds and dye for 30 minutes. […] The fluorescence change was measured 180 seconds after adding the agonist. Peak fluorescence was plotted as a function of BzATP concentration using Origin 7 software.

- IC50: 3.45 µM
Compound: CC[C@H]1CNC(=S)C(=O)N1Cc1cccc(C(F)(F)F)c1Cl [US10053463, 6]
